{"source": "patent US8951752B2", "about": "“N-demethyase genes and uses thereof” (priority 2011, dated 2015)", "test_system": "Pseudomonas sp. CBB1", "data": [{"smiles": "Cn1c(=O)c2c(ncn2C)n(C)c1=O", "note": "[Caffeine, 1,3,7-trimethylxanthine]", "values": [{"measurement": "caffeine degradation", "setting": "black tea extract", "value": "About 40%"}, {"measurement": "period of caffeine degradation", "setting": "black tea extract, 8.3 mM caffeine, OD600 20", "value": 250, "unit": "min"}, {"measurement": "time to complete caffeine degradation", "setting": "control solution, 8.3 mM caffeine in KPi buffer", "value": "less than 100 minutes"}]}]}
